From US6352966B1, “Cleansing bars” (Albemarle Corporation, priority 2000, dated 2002)

Legend:
[1] = Bar hardness of cleansing bars; assay type: physicochemical; conditions: the higher the hardness, the more desirable
Experimental: (§1) The desirable properties of cleansing bars formed from fully neutralized sodium salts of various alkenyl succinic acids of this invention were determined in a further series of comparative tests. In these tests both the reflectance and the bar hardness were determined. In addition to testing bars of five different fully neutralized succinate salts of this invention, the same properties were measured on four fully compounded commercial soap bars from different well-known soap manufacturers. As can be appreciated, the higher the reflectance the whiter the bar, and the higher the hardness, the more desirable is the bar. In Table 2, the five fully neutralized alkenyl succinic acids are identified in terms of the number of carbon atoms in the alkenyl group. Thus, for example, C6 SAS represents the fully neutralized disodium salt of n-hexenyl succinic acid. As regards reflectance, Commercial Bar B is pink in color, and Commercial Bar C is a coral-orange in color. The other two commercial bars are white.

[2] = Reflectance of cleansing bars; assay type: physicochemical; conditions: bar; the higher the reflectance the whiter the bar
Experimental: as §1

Bar Hardness [1]	Reflectance [2]	Substance
104	92	Disodium Salt of n-Octenyl Succinic Acid [C8 SAS]
88	92	fully neutralized disodium salt of n-hexenyl succinic acid [C6 SAS]
